Literature values as cited in PMC12547689.

Biological target: GFP (Aequorea victoria) [GFP: P42212]
Conditions: cited from earlier work

GFP (from UniProt P42212)
Kd: 100 µM
